{
  "source": "patent US20240307551A1",
  "about": "“ANTIBODY-DRUG CONJUGATE AND APPLICATION THEREOF” (JIANGSU ALPHAMAB BIOPHARMACEUTICALS CO., LTD., priority 2021, published 2024)",
  "key": {"NCI-N87 cells [1]": {"test_system": "NCI-N87 cells", "assay": "NCI-N87 tumor cell killing assay (CCK-8)", "assay_type": "cell-based, human", "conditions": "3 days of treatment", "description": "(§1) The plate was gently tapped to mix the contents well and left at 37° C. for around 2 h. • (6) With 650 nm as a reference wavelength, the absorbance values at 450 nm were recorded."}, "BT474 cells": {"test_system": "BT474 cells", "assay": "BT474 tumor cell killing assay (CCK-8)", "assay_type": "cell-based", "conditions": "3 days of treatment", "description": "as §1"}, "[2]": {"test_system": "SK-BR-3 (high HER2 expression) single cell system", "assay": "Bystander killing experiment, SK-BR-3 single cell system", "assay_type": "cell-based", "conditions": "72 h", "description": "(§2) After 3 days of treatment, the cells in all sample wells were counted, the mixed cell system was stained with the APC anti-CD340 Antibody fluorescent antibody, and flow cytometry assays were performed. In T75 culture flasks, SK-BR-3 and MDA-MB-468 cells were in the logarithmic growth phase. The media were discarded. After two washes with PBS, the liquid was pipetted off; 2 mL of trypsin was added for digestion, and the flasks were left in a 37° C. incubator for 4 min. The cell digests were transferred to 15-mL centrifuge tubes, and 8 mL of growth medium was added to stop the digestion. The cells were pipetted until single-cell suspensions were formed, and the suspensions were centrifuged at 1000 rpm for 5 min. The supernatants were discarded, and 3 mL of medium (RPMI-1640+1% FBS) was added to resuspend the cells. 20 μL of cell suspension was taken and mixed with 20 μL of 0.2% trypan blue. Count: Mono-culture: The densities of the two types of cells were adjusted to 1×10^5 cells/mL using a medium (RPMI-1640+1% FBS); each of the two types of cells was plated onto a 96-well plate at 100 μL/well, with each well containing 1×10^4 cells; the plates were incubated overnight in a 37° C., 5% CO2 incubator. Co-culture: The densities of the two types of cells were adjusted to 2×10^5 cells/mL using a medium (RPMI-1640+1% FBS); to each well were added 50 μL of SK-BR-3 cells and 50 μL of MDA-MB-468 cells; each well contained a total of 2×10^4 cells; the plate was incubated overnight in a 37° C., 5% CO2 incubator. Antibody drug preparation: The test samples were 5-fold diluted with an RPMI-1640 medium containing 1% FBS from the highest working concentration of 50 nM to obtain a total of 4 concentrations. A control group was set up at the same time, i.e., a drug-free group (negative control). The diluted test samples were added at 100 μL/well, and 100 μL of RPMI-1640+1% FBS medium was directly added to the negative control. The plate was incubated at 37° C. with 5% CO2 for 72 h. The supernatants in the 96-well plate were pipetted off. After one wash with 200 μL of 1×PBS, 20 μL of trypsin was added to each well for digestion, and the plate was left in a 37° C. incubator for 4 min. 100 μL of medium (RPMI-1640+10% FBS) was added to stop the digestion. The cells were pipetted until single-cell suspensions were formed, and the plate was centrifuged at 1000 rpm for 5 min. The supernatants were discarded, and 40 μL of 1×PBS was added to each well to resuspend cells. 20 μL of cell suspension was taken and mixed with 20 μL of 0.2% trypan blue, and cells were counted. […]"}, "BxPC-3 tumor model": {"test_system": "BxPC-3 tumor model", "assay": "Tumor growth inhibition in BxPC-3 nude mouse model", "assay_type": "in vivo, nude mice", "conditions": "10 mg/kg, intraperitoneal, 24 days", "description": "Group administration regimen: BxPC-3 cells were injected subcutaneously into the axilla of nude mice to establish a model, wherein the concentration for inoculation was 1×10^6/0.1 mL/mouse.\nWhen the average tumor size reached about 190 mm^3, the mice were randomly divided into groups of 4 (male) by tumor size and body weight. The day when random grouping was performed was taken as day 0. The test drugs were administered intraperitoneally on day 0, and administered intraperitoneally at the dose once every 3 days in the following days. A total of 2 administrations were performed. The animals not selected were euthanized with CO2.\nThe test animals were divided into groups A, B and C.\nAccording to the above regimen, the test mice of groups A, B and C were put on three test substances for 24 days (2 animals from group A (PBS) were euthanized after 20 days of test substance administration because the tumors grew too big). Tumor inhibition curves of the three test substances against the BxPC-3 tumor model were obtained."}, "[3]": {"test_system": "SK-BR-3+MDA-MB-468 (1:1) mixed cell system", "assay": "Bystander killing experiment, mixed cell system, total cell count", "assay_type": "cell-based", "conditions": "72 h", "description": "as §2"}, "[4]": {"test_system": "HER2 expression negative human gastric cancer PDX tumor", "assay": "HER2 negative gastric cancer PDX subcutaneous xenograft model (case 111)", "assay_type": "in vivo, NOD/SCID mice"}, "[5]": {"test_system": "MDA-MB-468 cells in SK-BR-3+MDA-MB-468 (1:1) mixed system", "assay": "Bystander killing experiment, MDA-MB-468 cells in the mixed system", "assay_type": "cell-based", "conditions": "72 h"}, "[6]": {"test_system": "MDA-MB-468 (no HER2 expression) single cell system", "assay": "Bystander killing experiment, MDA-MB-468 single cell system", "assay_type": "cell-based", "conditions": "72 h", "description": "as §2"}, "[7]": {"test_system": "human HER2 weakly positive (2+) gastric cancer PDX", "assay": "HER2 weakly positive (2+) gastric cancer PDX subcutaneous xenograft model (case 168)", "assay_type": "in vivo, NOD/SCID mice", "conditions": "Day 27, 10 mg/kg"}, "NCI-N87 cells [8]": {"test_system": "NCI-N87 cells", "assay": "Binding to NCI-N87 tumor cells by FACS", "parameters": "species or system human", "description": "The specific steps of the assay: • (1) Drugs were prepared with 1% BSA/PBS. The highest concentration prepared was 120 μg/mL (the working concentration was 60 μg/mL) and was 3-fold diluted to obtain a total of 10 concentrations. • (2) NCI-N87 cells (purchased from Chinese Academy of Sciences, Shanghai) were collected, centrifuged, counted, blocked with 5% BSA/PBS for 15 min, and added to 1.5-mL centrifuge tubes at 2×10^5 cells/50 μL/tube. 50 μL of antibody drug was added to each of the tubes, and the tubes were left at 4° C. for 1 h. • (3) Cells were washed twice by centrifugation at 2000 rpm for 5 min. In each wash, 1000 μL of 1% BSA/PBS was added. After the last wash, the liquid was pipetted off, and 90 μL of APC-IgG diluted in 1% BSA/PBS at 1:100 was added to each well. The tubes were left in the dark at 4° C. for 30 min. • (4) Cells were washed twice by centrifugation at 2000 rpm for 5 min. In each wash, 1000 μL of 1% BSA/PBS was added. After the last wash, the liquid was pipetted off; 300 μL of 1% BSA/PBS was added to each of the tubes, and FACS assays were performed in the dark."}, "[9]": {"conditions": "FACS mean fluorescence intensity (MFI) binding curve"}},
  "data": [
    {"substance": "DS-8201 [reference compound]", "values": [
      {"measurement": "inhibition rate against NCI-N87", "setting": "NCI-N87 cells [1]", "value": 60, "unit": "%"},
      {"measurement": "inhibition rate against BT474 cells", "setting": "BT474 cells", "value": 23, "unit": "%"},
      {"measurement": "CountStar cell count", "setting": "[2]; 0.4 nM", "value": 5120},
      {"measurement": "CountStar cell count", "setting": "[2]; 2 nM", "value": 3572},
      {"measurement": "CountStar cell count", "setting": "[2]; 10 nM", "value": 2808},
      {"measurement": "CountStar cell count", "setting": "[2]; 50 nM", "value": 2012},
      {"measurement": "tumor inhibition (tumor inhibition curves)", "setting": "BxPC-3 tumor model", "value": "tumor inhibition to a great extent"},
      {"measurement": "CountStar cell count", "setting": "[3]; 0.4 nM", "value": 27860},
      {"measurement": "CountStar cell count", "setting": "[3]; 2 nM", "value": 23680},
      {"measurement": "CountStar cell count", "setting": "[3]; 10 nM", "value": 16760},
      {"measurement": "CountStar cell count", "setting": "[3]; 50 nM", "value": 12000},
      {"measurement": "T/C (%)", "setting": "[4]; Day 17, 10 mg/kg", "value": 24.81, "unit": "%"},
      {"measurement": "TGI (%)", "setting": "[4]; Day 17, 10 mg/kg", "value": 75.19, "unit": "%"},
      {"measurement": "Tumor volume (mm^3) (x ± S)", "setting": "[4]; Day 17 after the first administration, 10 mg/kg once, tail vein, listed as ENHERTU, 10 mg/kg", "value": "174.06±71.09", "unit": "mm^3"},
      {"measurement": "proportion of HER2 negative (MDA-MB-468) cells in the mixed cell group", "setting": "[5]; 0.4 nM", "value": 55.33, "unit": "%"},
      {"measurement": "proportion of HER2 negative (MDA-MB-468) cells in the mixed cell group", "setting": "[5]; 2 nM", "value": 64.00, "unit": "%"},
      {"measurement": "proportion of HER2 negative (MDA-MB-468) cells in the mixed cell group", "setting": "[5]; 10 nM", "value": 56.20, "unit": "%"},
      {"measurement": "proportion of HER2 negative (MDA-MB-468) cells in the mixed cell group", "setting": "[5]; 50 nM", "value": 57.85, "unit": "%"},
      {"measurement": "CountStar cell count", "setting": "[6]; 0.4 nM", "value": 10320},
      {"measurement": "CountStar cell count", "setting": "[6]; 2 nM", "value": 10800},
      {"measurement": "CountStar cell count", "setting": "[6]; 10 nM", "value": 11480},
      {"measurement": "CountStar cell count", "setting": "[6]; 50 nM", "value": 8800},
      {"measurement": "T/C (%)", "setting": "[7]", "value": 13.92, "unit": "%"},
      {"measurement": "TGI (%)", "setting": "[7]", "value": 86.08, "unit": "%"}
    ]},
    {"substance": "Antibody A-ADC2", "values": [
      {"measurement": "inhibition rate against BT474 cells", "setting": "BT474 cells", "value": 36, "unit": "%"},
      {"measurement": "EC50", "setting": "NCI-N87 cells [8]; FACS binding, 4° C., 1 h", "value": 0.9369, "unit": "µg/mL"},
      {"measurement": "Peak value", "setting": "NCI-N87 cells [8]; [9]", "value": 30780},
      {"measurement": "Valley value", "setting": "NCI-N87 cells [8]; [9]", "value": 660.8}
    ]}
  ]
}
